Among the data in publication PMC10380293 (International Journal of Molecular Sciences, 2023) are Kd values, retold here.

This assay deals with mScarlet-I-PCNA (human, UniProt P12004 1-261). The assay is described as follows: FRET or BRET; 1 µM p15-mNeonGreen (donor) with 0-3.09 µM mScarlet-I-PCNA (acceptor, protomer concentration) in PBS with 1 mM DTT, 37 °C for 1 h, 384 well plate; sensitized emission by the three-channel method, control mNeonGreen/mScarlet-I-PCNA subtracted; apparent for C148S. As to conditions: both partners purified.

B1: p15-mNeonGreen (natural protein, UniProt Q15004 1-111, looked up)
chain: MVRTKADSVPGTYRKVVAARAPRKVLGSSTSATNSTSVSSRKAENKYAGGNPVCVRPTPKWQKGIGEFFRLSPKDSEKENQIPEEAGSSGLGKAKRKACPLQPDHTNDEKE
B1: the Kd was 431 nM.
